High-throughput results as filed in PubChem.
Many of the other results were omitted from the sample, so hits are more common in it than they were.
GIV-Gai inh: blocks GIV peptide binding to rat Galpha-i3; Galpha-i3/FITC-GIV peptide fluorescence polarization, 90 min; stronger effect = lower value; scaled: aluminum fluoride 0%, vehicle 100%; P08753; hit rate 0.42% among 210,000; AID 1224905; percent of control (FP), % (test concentration not listed);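 active = replicate mean at 85% of control or lower, very high polarization wells dropped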;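 also: wells of about 15 µL received 100 nL stock; the first replicate is given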
Numbers without * were called inactive; ! = repeats disagree.

canonical_smiles	GIV-Gai inh
CCC(C(=O)NCc1ccc(OC)cc1OC)N1C(=O)CSc2ccc(C(C)(C)C)cc21 (configuration not stated)	106.1
CC(=O)C1=NN(c2ccc(Cl)cc2)C(c2cccs2)N1c1ccc(C)cc1 (configuration not stated)	116.7
O=C1/C(=C/c2ccc3nccnc3c2)Cc2ccccc21	111.7
CN(C)c1ccc(/C=C2\CCC/C(=C\c3ccccc3)C2=O)cc1	155.2
CN1C/C(=C\c2ccc(N3CCOCC3)cc2)C(=O)/C(=C/c2ccc(N3CCOCC3)cc2)C1	196.8
O=C1C(=Cc2ccc(N3CCCC3)cc2)C(=O)c2ccccc21	-61.3*
O=C1/C(=C/c2ccc(N3CCOCC3)cc2)Cc2ccccc21	-74.8*
CCn1c2ccccc2c2cc(/C=C3\CCC(C4CCCC4)C3=O)ccc21 (configuration not stated)	105.6
CN(C)c1ccc(/C=C2\Cc3ccccc3C2=O)cc1	-74.8*
O=C1/C(=C/c2ccc(N3CCOCC3)cc2)CC/C1=C\c1ccc(N2CCOCC2)cc1	133.4
O=C1NC(=O)C(=Cc2ccc(N3CCCC3)cc2)C(=O)N1	99.2
O=C1C(=Cc2ccc(F)cc2)C(=O)c2ccccc21	97.8
CCn1c2ccccc2c2cc(/C=C3\Cc4ccccc4C3=O)ccc21	-74.3*
CCn1c2ccccc2c2cc(C=C(C#N)C#N)ccc21	136.1
C=CCn1c(=O)c2ccc(C(=O)NCc3ccc4c(c3)OCO4)cc2n(Cc2ccc(F)cc2Cl)c1=O	94.6
CCCS(=O)(=O)N1CCC(c2c(C)n(Cc3ccc(Cl)cc3)c3ccccc23)CC1	109.3
COCCOC(=O)C1=C(C)NC(C)=C(C(=O)OCCOC)C1c1cn(-c2ccccc2)nc1-c1cccs1	103.1
O=C(NCc1ccccc1Cl)c1cccc(C(=O)NCc2ccccc2Cl)n1	99.7
O=C(COc1ccccc1-c1nnc(-c2ccccc2)o1)NCCc1ccc(Cl)cc1	106.4
Cc1ccc(C)c(N2CCN(S(=O)(=O)c3c(C)sc(C)c3-c3n[nH]c(C)c3C)CC2)c1	97.5

The final three compounds of the part before lead into the next:
canonical_smiles	GIV-Gai inh
O=C(NCc1ccccc1Cl)c1cccc(C(=O)NCc2ccccc2Cl)n1	99.7
O=C(COc1ccccc1-c1nnc(-c2ccccc2)o1)NCCc1ccc(Cl)cc1	106.4
Cc1ccc(C)c(N2CCN(S(=O)(=O)c3c(C)sc(C)c3-c3n[nH]c(C)c3C)CC2)c1	97.5
CCOC(=O)c1csc(-c2ccccc2F)n1	106.5
CCc1ccc(N2C(=O)Nc3ccccc3S2(=O)=O)cc1	103.8
COc1ccc(C(=O)N2C(=O)N(c3ccccc3)C3(C)CC2c2ccccc2O3)cc1 (configuration not stated)	100.2
COc1ccc(C2C(N3C(=O)c4c(Cl)c(Cl)c(Cl)c(Cl)c4C3=O)C(=O)N2c2ccc(Cl)c(Cl)c2)cc1Br (configuration not stated)	103.8
O=S(=O)(NCC(c1ccccc1)N1CCOCC1)c1ccc(Cl)cc1 (configuration not stated)	101.5
Cc1cccc(-c2nc3cc(NC(=O)c4cc([N+](=O)[O-])c(C)c([N+](=O)[O-])c4)ccc3o2)c1	103.5
COc1ccc(C2C=C(c3ccc(Cl)cc3)Nc3nc(-c4ccc(Cl)cc4)nn32)cc1 (configuration not stated)	-8.2*!
COc1ccccc1C1C=C(c2ccc(Cl)cc2)Nc2nc(-c3ccc(Cl)cc3)nn21 (configuration not stated)	111.4
COc1ccc(C(=O)Nc2nc3n(n2)C(c2ccc(Cl)cc2)C=C(c2ccccc2)N3)cc1OC (configuration not stated)	40.5*
Cc1ccc(C2=CC(c3ccc(Cl)cc3)n3nc(-c4ccc(C)cc4)nc3N2)cc1 (configuration not stated)	101.3
COc1ccc(C2C=C(c3ccccc3)Nc3nc(NC(=O)c4ccc(C)cc4)nn32)cc1 (configuration not stated)	128.0
O=C(Nc1nc2n(n1)C(c1ccc(F)cc1)C=C(c1ccccc1)N2)c1ccco1 (configuration not stated)	130.2
O=C(Nc1nc2n(n1)C(c1ccc(Cl)cc1)C=C(c1ccccc1)N2)c1ccco1 (configuration not stated)	-44.3*
O=C(/C=C/c1ccccc1)Nc1nc2n(n1)C(c1ccc(Cl)cc1)C=C(c1ccccc1)N2 (configuration not stated)	110.8
O=C(Nc1nc2n(n1)C(c1ccccc1)C=C(c1ccccc1)N2)c1ccccc1 (configuration not stated)	139.3
COc1ccc(C2CCCN2C(=O)Nc2cc(OC)ccc2OC)cc1 (configuration not stated)	99.8
COc1cc(/C=c2\sc3nc4ccccc4n3c2=O)c(Br)cc1OC(C)=O	102.4
NC(N)=NN=C1CCC(=NN=C(N)N)CC1	94.8
COC(=O)C1=CN(c2ccc(C)c(C)c2)c2cc(F)c(F)cc2S1(=O)=O	96.7
CCCCN1C(=O)SC(Nc2ccc(F)cc2)C1=O (configuration not stated)	108.5
CNc1nsc(C(=O)c2ccc(OC)cc2)c1N	107.2
CC1=CC(C)C2(COC(=O)NC3CCCCC3)COC(c3ccc4c(c3)OCO4)C1C2C (configuration not stated)	115.5
O=c1oc2cc(O)ccc2cc1-c1csc(-c2ccccc2Cl)n1	111.7
O=c1oc2cc(O)ccc2cc1-c1nc(-c2ccccc2F)no1	-62.2*
O=c1oc2ccccc2cc1-c1nc(-c2ccccc2)no1	112.2
COc1cccc(NC(=O)CSC2=C(C#N)C(c3ccccc3)C(C(=O)Nc3ccccc3)=C(C)N2)c1 (configuration not stated)	105.2
CCN(CC)C/C=C/c1c(F)c(F)c(OC)c(F)c1F	97.8
C[n+]1ccccc1-c1nc2ccccc2s1	101.0
COc1ccccc1-c1nc2ccccc2s1	104.1
Nc1ncc(-c2nc3ccccc3s2)c(N)n1	-55.4*
O=C(Nc1ccc2c(c1)OCO2)Nc1nccn(-c2ccc(F)c(F)c2)c1=O	102.9
CCOC(=O)c1c(/N=C/C2C(=O)NC(=S)NC2=O)sc2c1CCCCC2	-20.7*
CCOC(=O)c1c(N2C(=O)CCC2=O)sc2c1CCCC2	104.4
CCOC(=O)c1c(NC(=O)CC2NCCNC2=O)sc2c1CCCC2 (configuration not stated)	107.3
COc1cc(OC)cc(-c2nc3ccccc3c(=O)n2NC(=O)c2cc(OC)c(OC)c(OC)c2)c1	102.2
Cn1c(NC(=O)c2cccc(Br)c2)cc(=O)n(C)c1=O	106.7
Cc1nn(-c2ccc3nnc(C)n3n2)c2c1C(c1cccc(OCc3cccc(F)c3)c1)CC(=O)N2 (configuration not stated)	105.0
C=CCN1/C(=C/C=C/c2n(C/C=C\S(=O)(=O)[O-])c3cc(C(=O)OCC)ccc3[n+]2CC)N(CC)c2ccc(C(=O)OCC)cc21	135.8
CCN1/C(=C\C=C\c2n(CC)c3cc([N+](C)(C)C)ccc3[n+]2CC)N(CC)c2cc([N+](C)(C)C)ccc21	94.3
CCN1/C(=C/C=C/c2n(CC)c3cc(Cl)ccc3[n+]2Cc2ccccc2)N(Cc2ccccc2)c2ccc(Cl)cc21	-62.4*

Continued.
SMILES,GIV-Gai inh
Cc1cc(C)c2c(C)c(C(=O)NCC(c3cccs3)N3CCCC3)oc2c1 (configuration not stated),103.2
CCOc1ccccc1OCc1nn2c(COc3ccc(F)cc3)nnc2s1,100.1
Cc1nc2ccccc2c2c1C(=O)N(c1ccc(C(=O)OC(C)C(=O)c3ccccc3)cc1)C2=O (configuration not stated),102.0
C=Cc1ccc(CN(c2nc3nc(C)c(Cl)c(C)n3n2)S(=O)(=O)c2ccc(C)cc2)cc1,102.8

Individual results from the results shown.
Under GIV-Gai inh, COc1cccc(NC(=O)CSC2=C(C#N)C(c3ccccc3)C(C(=O)Nc3ccccc3)=C(C)N2)c1 (configuration not stated) is entered as 105.2
Under GIV-Gai inh, O=C(Nc1nc2n(n1)C(c1ccc(F)cc1)C=C(c1ccccc1)N2)c1ccco1 (configuration not stated) is entered as 130.2
Under GIV-Gai inh, O=C1/C(=C/c2ccc3nccnc3c2)Cc2ccccc21 is entered as 111.7
Under GIV-Gai inh, CCCS(=O)(=O)N1CCC(c2c(C)n(Cc3ccc(Cl)cc3)c3ccccc23)CC1 is entered as 109.3
Under GIV-Gai inh, COc1cc(/C=c2\sc3nc4ccccc4n3c2=O)c(Br)cc1OC(C)=O is entered as 102.4
